Experimental findings from PubChem BioAssay AID485273 (Sanford-Burnham Center for Chemical Genomics, 2010) are described below.

Sequences of proteins named here, by UniProt entry; tags and fusion partners are left off.
UniProt P61088, whole entry, looked up: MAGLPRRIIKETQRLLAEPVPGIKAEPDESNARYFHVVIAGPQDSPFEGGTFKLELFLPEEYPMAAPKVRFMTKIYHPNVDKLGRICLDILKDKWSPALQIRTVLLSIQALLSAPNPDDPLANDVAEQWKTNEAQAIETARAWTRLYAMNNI

Each structure is given as a SMILES string. The entries are a selection whose mix differs from that of the whole data set. Some tests of the compounds listed are not included; inactive here does not mean inactive elsewhere. Active and inactive are the calls of the source. Cut-off read from the data, not from the text of the source: active = inhibition above about 45% (passing the limit was not always enough); inconclusive = no clear call, values can overlap the other calls.

This test concerns the target Ubiquitin-conjugating enzyme E2 N (Homo sapiens) (UniProt P61088). The test is described as follows: blockers of UBC13 ubiquitin chain synthesis – biochemical, TR-FRET, uHTS, primary screen (AID 485273). The settings on record: UBC13 polyubiquitin chain formation, at 20 µM, active compounds read high. For orientation: In TR-FRET formats the signal depends on donor and acceptor labels being close together.
As usually defined, the inhibition is the drop in the measured response relative to a control, in per cent. For `O=C(OC1CN2CCC1CC2)C(CO)(c1ccccc1)c1ccccc1` (centres undefined), the inhibition was inactive: 11.3%.

With `COc1ccc(Br)c(C(=O)NCC2(N3CCCCC3)CCCCC2)c1`, the inhibition was inactive: 1.1%.

In the case of `CN(C)c1cccc(C(=O)NCC2(N(C)C)CCCCC2)c1`, the inhibition was inactive: 5.1%.

On to `CC(C)Oc1ccc(C(=O)NCC2(N(C)C)CCCCC2)cc1`, for which the inhibition was inactive: -1.2%.

As to `CN(C)C1(CNC(=O)c2ccc(Br)cc2)CCCCC1`, the inhibition is inactive: 0.9%.

As to `COc1cc(C(=O)NCC2(N(C)C)CCCCC2)c([N+](=O)[O-])cc1OC`, the inhibition is inactive: -7.3%.

As to `COc1cccc(C(=O)NCC2(N3CCCCC3)CCCCC2)c1`, the inhibition is inactive: 1.4%.

For `COc1ccc(Cl)cc1C(=O)NCC1(N(C)C)CCCCC1`, the inhibition is inactive: 0.6%.

As to `O=C(NCC1(N2CCCCC2)CCCCC1)c1cccc(Cl)c1`, the inhibition is inactive: 2.5%.

On to `Cc1ccccc1C(=O)NCC1(N2CCCCC2)CCCCC1`, for which the inhibition is inactive: -2.6%.

Turning to `CN(C)C1CCCC1OC(=O)C(O)(c1ccccc1)c1ccccc1` (centres undefined), the inhibition is inactive: 12.4%.

For the compound `CN(C)c1ccc(C(=O)NCC2(N(C)C)CCCCC2)cc1`, the inhibition is inactive: -10.4%.

Consider `C=CCN1CCN(CCOC(=O)C(O)(c2ccccc2)c2ccccc2)CC1`, for which the inhibition is inactive: -5.6%.

`O=C(NCC1(N2CCCCC2)CCCCC1)c1cc(F)c(F)cc1Cl`: the inhibition was inactive: 5.7%.

As to `Cc1cc(C(=O)NCC2(N3CCCCC3)CCCCC2)ccc1[N+](=O)[O-]`, the inhibition was inactive: 5.4%.

For `CCN1CCCC(OC(=O)C2(O)c3ccccc3C=Cc3ccccc32)C1` (centres undefined), the inhibition was inactive: 5.3%.

For `O=C(NCC1(N2CCCCC2)CCCCC1)c1cccc(Br)c1`, the inhibition is inactive: -8.4%.

Turning to `COc1ccc(C(=O)NCC2(N(C)C)CCCCC2)cc1`, the inhibition is inactive: -4%.

Regarding `O=C(NCC1(N2CCCCC2)CCCCC1)c1cc([N+](=O)[O-])ccc1Cl`, the inhibition was inactive: 3.4%.

Consider `CN1[C@@H]2CC[C@H]1CC(OC(=O)C(O)(c1ccccc1)c1ccccc1)C2` (some centres undefined), for which the inhibition is inactive: 3.2%.

For `CC(C)N1C(=O)CC2(CCN(CCOC(=O)C(O)(c3ccccc3)c3ccccc3)CC2)C1=O`, the inhibition was inactive: 3.5%.

As for `CCN(CC)CC(C)C(C)OC(=O)C(O)(c1ccccc1)c1ccccc1` (centres undefined), the inhibition was inactive: 0.2%.

`COc1cc(SC)ccc1C(=O)NCC1(N(C)C)CCCCC1`: the inhibition was inactive: -0.8%.

As for `Cc1ccc(C(=O)NCC2(N3CCCCC3)CCCCC2)cc1`, the inhibition is inactive: 2.1%.
